From patent US20230102223A1, “PHARMACEUTICAL COMPOSITIONS WITH ANTIFLAVIVIRAL ACTIVITY” (HEALTH RESEARCH, INC., priority 2016, published 2023)

Test system: DENV2
Conditions: Table 1

3-[10,15,20-tris(3-hydroxyphenyl)-2,3,22,24-tetrahydroporphyrin-5-yl]phenol [Temoporfin]
Therapeutic index (TI) (CC50/EC50): 558
